Apparent affinities of Ab-14 variants for a coronavirus HR2 peptide

The measurements come from Li et al. 2023 (doi:10.1038/s41467-023-39022-2) through the FLAb antibody collection.

Binding partner: SARS-CoV-2 spike HR2 peptide, sequence PDVDLGDISGINAS.

The variants keep the heavy chain, the linker and the frameworks of Ab-14 (scFv order VH, a (GGGGS)3 linker, VL).
VH: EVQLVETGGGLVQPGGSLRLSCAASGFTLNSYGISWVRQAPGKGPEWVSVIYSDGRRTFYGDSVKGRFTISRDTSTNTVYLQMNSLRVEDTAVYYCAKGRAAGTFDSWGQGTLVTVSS
VL: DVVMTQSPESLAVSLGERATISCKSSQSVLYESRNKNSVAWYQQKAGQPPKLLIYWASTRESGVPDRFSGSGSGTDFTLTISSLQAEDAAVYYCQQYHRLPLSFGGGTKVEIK

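The variants were designed computationally from a first round of random CDR variants and then made and measured. Several design methods are mixed in this list. Affinity was read by AlphaSeq, a pooled yeast mating assay with surface-displayed partners. Binding brings cells together so that they mate, and sequencing counts the barcode pairs among the diploids. Each replicate has its own calibration line, from reference interactions of the BCL2 family. The assay was run in six technical replicates.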

Each variant is given by its three light chain CDRs, as the data file delimits them; those of the parent are KSSQSVLYESRNKNSVA, WASTRES, QQYHRLPLS.
Values are apparent Kd, the geometric mean of the replicates that gave a signal; lower means stronger binding.
"nd" means that the variant was in the library but no mating with the target was seen in any replicate; the authors take this as a sign of poor binding, and no number exists.
Background: pairings of all light chain designs with three empty control strains gave a value in 4% of cases (median 430 nM, 5th percentile 38 nM). Values in that range, when seen in few replicates, are hard to tell from nonspecific mating.
Values of this round are not directly comparable with the first-round values of the same sequences.
The authors averaged sequences with at least three values out of six and counted those with two or fewer as poor binders.

CDR-L1,CDR-L2,CDR-L3,Kd (apparent),detected
KSSQSTLYESRNKNSVA,WASTRES,QQYHRLPLS,25 nM,6/6
KLSISHNVESISKSNVA,EMVTRES,QQYDRLPLS,4.7 nM,6/6
KSLQSGLYESRNKNSVA,HASTRED,QQYGRLPLS,6.3 nM,6/6
KLRQVTGYESYLRNSVA,QMSTRAE,QDYHRLPLS,2.4 nM,6/6
KSSTSVLYESRNANSVA,WASTREH,QQYHRLPLS,44 nM,5/6
KSSISQLGESRNKNSVA,EASTRES,QQYHRLPLS,3.2 nM,6/6
KSSQSVMYESNNKNAVA,WAGTRES,QQYHRLPLS,46 nM,6/6
KSSWSWLYESRNKNSVA,DASTRES,QQYHRLPLS,380 pM,6/6
QIYQAMHTLMQAKNNVA,DVNERGD,QQYYRLPLS,1.1 nM,6/6
KSSQSYGYESRNKNSVA,GASTRES,QQYHRLPLS,840 pM,6/6
KESQSVLFEWRNKNSVA,DASTRES,QQYHRLPLS,840 pM,6/6
RLSSELMAGEISYNAIA,NTKVLEY,QQYMRLPLG,5.6 nM,6/6
KLQQSQGYESRNKNSVA,HASTRED,QQYHRLPLS,2.0 nM,6/6
RFDMAMPYANSNINSIA,DKAIQAD,QQYNRLPLS,5.4 nM,6/6
KSSKSVLFESRNKNSVA,DASTRES,QQYHRLPLS,1.1 nM,6/6
KSSQSELYESRNFWSVA,NASTRES,QQYHRLPLS,4.3 nM,6/6
MISQLMNMGQFAINSVA,QAEIRNA,QQYDRLPLM,nd,0/6
HSSPSVQYESRNKNSVA,DASTREE,QDYHRLPLS,660 pM,6/6
KLVGDMQEDKNPSENIA,EMSSVEQ,QQYARLPLE,350 nM,2/6
KISINQMNYNGMRSAIA,NTNQARM,QQYFHLPLM,4.5 nM,6/6
HMSMLTLGGMRHMNSVA,QMTTREN,QQYDRLPLI,20 nM,6/6
KFSQSVLYESRAKNSVA,NAVTRET,QQYHRLPLS,390 pM,6/6
MVYSAVMMGGSARNSIA,NAQMRPD,QQYHRLPLA,15 nM,6/6
KFSQSVLYESRNKNQVA,YASMRES,QQYHRLLLS,nd,0/6
KLSQQMLYESRNKNNVA,AASDRED,QQYHRLPLS,760 pM,6/6
KSDQSELEESRNDNSVA,SANTRMS,QQYHRLPLS,4.9 nM,6/6
HISQMVMYGSCQKNNVA,QVSLREE,QQYHRLPLS,7.9 nM,6/6
KLRQSTLYESRNKNSVA,GASTRLS,QQYHRLPLS,1.2 nM,6/6
TIAQSFLMENQFKNSVA,QASTRES,QCYDRLPLS,44 nM,6/6
TLSNSMDMTSRNVNSVA,DLTTRGN,QQYHRLPLS,670 pM,6/6
KLSQSFLYEQRNKNSVA,NASTRES,QQYHRLPLS,530 pM,6/6
SLMNLMGGIEEMKNSIA,NQETGVR,QQYAHLPLV,130 nM,4/6
KSSFSGLYESRMKNSVA,EASTRES,QQYHRLPLS,2.0 nM,6/6
KLYQSVDYESRNKNSVA,NASTRES,QQYHRLPLS,790 pM,6/6
KVSTSELEESRNKNSVA,WASVREE,QQYHRLPLS,4.0 nM,6/6
KVSQSVLYENGTKNSVA,NASSRES,QQYHRLPLS,2.1 nM,6/6
KSSQSVLYESRNKHSVA,WASTRES,QDYHRLPLS,7.6 nM,6/6
TMNVELAYGVPEMNNVA,AGSQKLA,QQYYRLPLS,2.0 nM,6/6
KSSLSILYESFNKNSVA,WASTRES,QQYHRLPLS,140 nM,4/6
NISYHQGEPTNSVNNVA,QTSLRAH,QQYQHLPLC,4.9 nM,6/6
KLGQSVAMTSRNTNNVA,DLNERER,QQYHRLPLS,880 pM,6/6
QMRLLLENSGHRMNSIA,DETMKPD,QQYVRLPLQ,10 nM,5/6
KFSQMANQFSVSMNAVA,EMSTREE,QQYNRLPLA,1.0 nM,6/6
KFQQSELYESRNKNSVA,NASTRLS,QQYHRLPLS,860 pM,6/6
KSSPSVLYESRNLNSVA,TASTRES,QQYMRLPLS,110 nM,1/6
KLRQVTGYEMYNKDSVA,QTSTRVS,QDYHRLPLS,3.8 nM,6/6
KIYQSVLYESRNKNSVA,WASTRSQ,QQYHRLPLS,32 nM,6/6
KLLQNVMTEGRNRNNVA,HMDMRED,QQYWRLPLS,450 pM,6/6
IIDQLMYHGNKRANSIA,QASERLN,QQYHHLPLF,24 nM,6/6
KLGQSVAMTSRMKNNVA,DLNERER,QQYDRLPLS,2.4 nM,1/6
KLMMFMQEIGCMKNNIA,NLEEGAR,QQYAQLPLV,nd,0/6
KLWAYFQGLESNMQNVA,DGIYRST,QQYDRLPLS,9.2 nM,6/6
KLSQSANYLSRVMNSVA,DNSTRES,QQYFRLPLS,2.1 nM,6/6
MISNVMNTLTRYGNNVA,DLTEREK,QQYFRLPLS,80 nM,3/6

For reference, 8 entries of the list once more:

CDR-L1,CDR-L2,CDR-L3,Kd (apparent),detected
QMRLLLENSGHRMNSIA,DETMKPD,QQYVRLPLQ,10 nM,5/6
HISQMVMYGSCQKNNVA,QVSLREE,QQYHRLPLS,7.9 nM,6/6
KSSLSILYESFNKNSVA,WASTRES,QQYHRLPLS,140 nM,4/6
KSSQSVLYESRNKHSVA,WASTRES,QDYHRLPLS,7.6 nM,6/6
KSSQSVMYESNNKNAVA,WAGTRES,QQYHRLPLS,46 nM,6/6
KSSQSYGYESRNKNSVA,GASTRES,QQYHRLPLS,840 pM,6/6
KSSQSELYESRNFWSVA,NASTRES,QQYHRLPLS,4.3 nM,6/6
KLGQSVAMTSRNTNNVA,DLNERER,QQYHRLPLS,880 pM,6/6